Legend:
squalene synthetase [1] = biological target: squalene synthetase (Rattus norvegicus, UniProt Q02769); assay: Squalene synthetase inhibitory activity, rat-derived enzyme (liver microsome fraction), [1-3H] farnesyl pyrophosphate; details: read-out: Rat Enzyme (squalene synthetase inhibitory activity, IC50), 5 uM [1-3H] farnesyl pyrophosphate, 37°C, 45 minutes
Description: (§1) The squalene synthetase inhibitory activity was assayed as follows with the enzyme solutions described in the subsequent Experimental Examples 2 and 3.
(§2) More specifically, an enzyme solution (protein content 0.8 ug) prepared in Experimental Example 1 or 2 was added to a solution (total volume 50 ul)) containing 5 uM [1-^3H] farnesyl pyrophosphate (specific activity 25 uCi/mole), 1 mM NADPH, 5 mM MgCl2, 6 mM glutathione, a 100 mM buffer solution of potassium phosphate (pH 7.4) and a test drug (used as an aqueous solution or a DMSO solution), then the reaction was allowed to proceed at 37°C for 45 minutes. To the reaciton mixture was added 150 ul of a mixture of chloroform and methanol (1:2) to suspend the reaction, followed by adding 50 ul of chloroform and 50 ul of a 3N aqueous solution of sodium hydroxide. 50 ul of the chloroform layer (lower layer) containing the reaction mixture having squalene as the principal component and 3 ml of toluene-based liquid scintillator were mixed, and its radioactivity was determined by means of a liquid scintillation counter.
(§3) The squalene synthetase inhibitory activity was expressed in terms of the concentration inhibiting by 50% the radioactivity taken into the chloroform layer (IC50, molar concentration (M)).
An SD male rat (6 week old) was killed by bleeding, and its liver was excised. About 10 g of the liver was washed with a physiological saline solution cooled with ice, which was then homogenized in 15 ml of an ice-cooled buffer solution [100 mM potassium phosphate (pH 7.4), 15 mM nicotinamide, 2 mM MgCl2], followed by centrifugation for 20 minutes (4°C) with 10000 Xg. The supernatant layer was separated and subjected to further centrifugation for 90 minutes (4°C) with 105000 Xg. The sediment was then suspended in an ice-cooled 100 mM phosphate buffer solution (pH 7.4), which was again subjected to centrifugation for 90 minutes (4°C) with 105000 Xg. The sediment thus obtained (microsome fraction) was suspended in an ice-cooled 100 mM potassium phosphate buffer (pH 7.4) (about 40 mg/ml protein concentration, determined with BCA protein assay kit of Pias Co., Ltd.). This suspension was used as the enzyme solution.

Chains of the proteins cited; added tags and fusions are not shown.
UniProt Q02769, whole entry: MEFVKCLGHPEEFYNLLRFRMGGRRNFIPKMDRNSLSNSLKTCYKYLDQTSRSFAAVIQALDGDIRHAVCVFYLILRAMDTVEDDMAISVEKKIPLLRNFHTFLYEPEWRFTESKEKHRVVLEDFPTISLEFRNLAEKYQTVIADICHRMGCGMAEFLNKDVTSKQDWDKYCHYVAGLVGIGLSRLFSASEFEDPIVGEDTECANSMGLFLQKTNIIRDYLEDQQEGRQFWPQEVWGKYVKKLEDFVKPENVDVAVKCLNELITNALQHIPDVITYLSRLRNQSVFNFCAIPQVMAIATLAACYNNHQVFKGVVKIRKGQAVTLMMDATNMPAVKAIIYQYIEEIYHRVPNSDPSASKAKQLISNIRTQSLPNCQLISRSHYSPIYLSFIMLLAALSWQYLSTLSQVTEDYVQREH
UniProt P37268, whole entry: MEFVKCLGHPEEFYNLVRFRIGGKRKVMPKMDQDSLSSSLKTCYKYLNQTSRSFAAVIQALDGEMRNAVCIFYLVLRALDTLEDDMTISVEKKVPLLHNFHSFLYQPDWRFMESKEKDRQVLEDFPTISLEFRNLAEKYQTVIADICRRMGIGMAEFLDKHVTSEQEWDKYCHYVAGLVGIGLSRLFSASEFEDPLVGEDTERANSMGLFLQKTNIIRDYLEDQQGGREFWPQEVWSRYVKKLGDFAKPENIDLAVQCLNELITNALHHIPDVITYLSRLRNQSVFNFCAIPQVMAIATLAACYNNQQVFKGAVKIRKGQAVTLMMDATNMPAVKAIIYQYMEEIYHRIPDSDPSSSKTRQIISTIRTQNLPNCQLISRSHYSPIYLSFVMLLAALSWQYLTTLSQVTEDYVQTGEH

squalene synthetase [2] = biological target: squalene synthetase (Homo sapiens, UniProt P37268); assay: Squalene synthetase inhibitory activity, human-derived enzyme (HepG2 microsome fraction), [1-3H] farnesyl pyrophosphate; details: read-out: Man Enzyme (squalene synthetase inhibitory activity, IC50), 5 uM [1-3H] farnesyl pyrophosphate, 37°C, 45 minutes
Description: as §1, §2, §3
Human hepatic carcinoma cells HepG2 (about 1 x 10^9 cells) obtained by incubation on a Dulbecco-modified Eagle's medium (37°C in the presence of 5% CO2) were suspended in 10 ml of an ice-cooled buffer solution [100 mM potassium phosphate buffer (pH 7.4), 30 mM nicotinamide and 2.5 mM MgCl2]. The cells were crashed by means of ultrasonication (for 30 seconds, twice). From the sonicate thus obtained, the microsome fraction was obtained by the same procedure as in Experiment Example 1, which was suspended in an ice-cooled 100 mM potassium phosphate buffer (pH 7.4) (about 4 mg/ml protein concentration). This suspension was used as the enzyme solution.

IC50 (squalene synthetase [1]) | IC50 (squalene synthetase [2]) | Structure (SMILES)
28 nM | 30 nM | CC(C)(C)CN1C(=O)[C@@H](CC(=O)NCC(=O)O)O[C@H](c2ccccc2Cl)c2cc(Cl)ccc21 (relative stereo)
540 nM | 710 nM | CCCN1C(=O)[C@@H](CC(=O)O)O[C@H](c2ccccc2Cl)c2cc(Cl)ccc21 (relative stereo)
72 nM | 24 nM | CC(C)(C)CN1C(=O)[C@@H](CC(=O)O)O[C@H](c2ccccc2Cl)c2cc(Cl)ccc21 (relative stereo)
8300 nM | 6800 nM | O=C(O)C[C@H]1O[C@H](c2ccccc2Cl)c2cc(Cl)ccc2N(Cc2ccccc2)C1=O (relative stereo)
61 nM | 34 nM | CC(C)CN1C(=O)[C@@H](CC(=O)O)O[C@H](c2ccccc2Cl)c2cc(Cl)ccc21 (relative stereo)
16 nM | 6 nM | CC(C)(C)CN1C(=O)[C@@H](CC(=O)NCC(=O)O)O[C@H](c2ccccc2Cl)c2cc(Cl)ccc21
65 nM | 34 nM | CC(C)CN1C(=O)[C@@H](CC(=O)NCc2nnn[nH]2)O[C@H](c2ccccc2Cl)c2cc(Cl)ccc21 (relative stereo)
38 nM | 18 nM | COc1cccc([C@H]2O[C@H](CC(=O)O)C(=O)N(CC(C)(C)C)c3ccc(Cl)cc32)c1OC (relative stereo)
79 nM | 14 nM | CC(C)(C)CN1C(=O)[C@@H](CC(=O)O)O[C@H](c2ccccc2Cl)c2cc(Br)ccc21 (relative stereo)
49 nM | 40 nM | COc1ccccc1[C@H]1O[C@H](CC(=O)O)C(=O)N(CC(C)(C)C)c2ccc(Cl)cc21 (relative stereo)
94 nM | 28 nM | CCC(CC)N1C(=O)[C@@H](CC(=O)NCC(=O)O)O[C@H](c2ccccc2Cl)c2cc(Cl)ccc21 (relative stereo)
4700 nM | 5100 nM | O=C(O)C[C@H]1O[C@H](c2ccccc2Cl)c2cc(Cl)ccc2N(CCc2ccccc2)C1=O (relative stereo)
43 nM | 34 nM | CC(C)CN1C(=O)[C@@H](CC(=O)O)O[C@H](c2ccccc2Cl)c2cc(Cl)ccc21
4000 nM | 3800 nM | O=C(O)C[C@H]1O[C@H](c2ccccc2Cl)c2cc(Cl)ccc2N(CC2CCCCC2)C1=O (relative stereo)
35 nM | 12 nM | CC(C)CN1C(=O)[C@@H](CC(=O)NCC(=O)O)O[C@H](c2ccccc2Cl)c2cc(Cl)ccc21 (relative stereo)
67 nM | 18 nM | CC(C)(C)CN1C(=O)[C@@H](CC(=O)NCc2nnn[nH]2)O[C@H](c2ccccc2Cl)c2cc(Cl)ccc21 (relative stereo)
3400 nM | 3300 nM | O=C(CC1OC(c2ccccc2Cl)c2cc(Cl)ccc2N(Cc2ccccc2)C1=O)N[C@H](Cc1c[nH]c2ccccc12)C(=O)O (single isomer, unassigned) [W. Ex. 34-6]
6300 nM | 6400 nM | CC(C)N1C(=O)[C@@H](CC(=O)O)O[C@H](c2ccccc2Cl)c2cc(Cl)ccc21 (relative stereo)
54 nM | 22 nM | CC(C)(C)CN1C(=O)[C@@H](CC(=O)O)O[C@H](c2cccc3c2OCO3)c2cc(Cl)ccc21 (relative stereo)
> 10000 nM | – | CC(C)(C)CN1C(=O)[C@H](CC(=O)O)O[C@@H](c2ccccc2Cl)c2cc(Cl)ccc21
42 nM | 16 nM | CC(C)(C)CN1C(=O)C(CC(=O)O)OC(c2ccccc2Cl)c2cc(Cl)ccc21 (stereo not shown)
4300 nM | 4300 nM | O=C(CC1OC(c2ccccc2Cl)c2cc(Cl)ccc2N(Cc2ccccc2)C1=O)N[C@H](Cc1c[nH]c2ccccc12)C(=O)O (single isomer, unassigned) [W. Ex. 34-5]
2600 nM | 2100 nM | O=C(O)CN(Cc1ccccc1)C(=O)C[C@H]1O[C@H](c2ccccc2Cl)c2cc(Cl)ccc2N(Cc2ccccc2)C1=O (relative stereo)
7200 nM | 5300 nM | O=C(O)CNC(=O)C[C@H]1O[C@H](c2ccccc2Cl)c2cc(Cl)ccc2N(Cc2ccccc2)C1=O (relative stereo)
4900 nM | 3800 nM | CCOC(=O)CCNC(=O)C[C@H]1O[C@H](c2ccccc2Cl)c2cc(Cl)ccc2N(Cc2ccccc2)C1=O (relative stereo)

Reference: patent EP0567026B1, “4,1-Benzoxazepin derivatives as squalene synthase inhibitors and their use in the treatment of hypercholesteremia and as fungicides” (TAKEDA CHEMICAL INDUSTRIES, LTD., priority 1992, dated 1993)
